Source: BindingDB's records for doi:10.1021/jm960486n (Eli Lilly, 1997)

Experiments:
[1] = Compound was tested for the inhibitory activity against human pancreatic PLA2
[2] = molecular target: Phospholipase A2 group IB, pancreatic (Homo sapiens) (UniProt P04054); experiment: Inhibitory activity against human pancreatic Phospholipase A2

IC50 [1]: 3.66 µM
IC50 [2]: 3.66 µM
SMILES: Cc1c(CC(N)=O)c2c(OCCCC(=O)O)cccc2n1Cc1ccccc1 [4-(1-Benzyl-3-carbamoylmethyl-2-methyl-1H-indol-4-yloxy)-butyric acid]
